Legend:
human CB2 receptor [1] = target: T1, human CB2 receptor (Homo sapiens, UniProt P34972); assay: [3H]-WIN-55,212-2 competition binding, CHO membranes; conditions: radioligand 3 nM [3H]-WIN-55,212-2, CHO membranes
T1 construct: expressed in transfected cells; membranes

Chains of the proteins cited; added tags and fusions are not shown.
UniProt P34972, whole entry: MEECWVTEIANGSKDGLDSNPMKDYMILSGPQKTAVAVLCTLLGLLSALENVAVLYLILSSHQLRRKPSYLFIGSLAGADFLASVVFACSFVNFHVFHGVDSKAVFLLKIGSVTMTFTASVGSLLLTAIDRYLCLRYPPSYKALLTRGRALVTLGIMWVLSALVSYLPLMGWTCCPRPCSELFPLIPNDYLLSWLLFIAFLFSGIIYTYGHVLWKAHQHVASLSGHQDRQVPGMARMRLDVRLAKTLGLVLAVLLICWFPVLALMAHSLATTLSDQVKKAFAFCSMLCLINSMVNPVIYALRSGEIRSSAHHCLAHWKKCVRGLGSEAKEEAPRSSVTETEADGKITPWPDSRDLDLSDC

human CB2 receptor [2] = target: T1, human CB2 receptor; assay: [3H]-CP-55940 competition binding, CHO membranes; conditions: radioligand 0.3 nM [3H]-CP-55940, CHO membranes

C=C(C)[C@@H]1CCC(C)=C[C@H]1c1c(O)cc(CCCCC)cc1O [CBD, cannabidiol, reference compound]
Ki (human CB2 receptor [1]): 4.02 µM
Ki (human CB2 receptor [2]): 1.71 µM

Reference: paper PMC6021502, “Cannabigerol Action at Cannabinoid CB1 and CB2 Receptors and at CB1–CB2 Heteroreceptor Complexes” (Frontiers in Pharmacology, 2018)
